BindingDB's records for patent US10941160 (Celgene Quanticel Research, 2021)

Target: Bromodomain-containing protein 4 (Homo sapiens, UniProt O60885)
Test: In Vitro Enzyme Inhibition Assay
Description: His-tagged BRD4 was cloned, expressed and purified to homogeneity. BRD4 binding and inhibition was assessed by monitoring the interaction of biotinylated H4-tetraacetyl peptide (AnaSpec, H4K5/8/12/16(Ac), biotin-labeled) with the target using the AlphaScreen technology ([…]). […] After 20 min incubation at room temp, Alpha streptavidin donor beads and Nickel Chelate acceptor beads were added to a final concentration of 5 μg/mL.

SMILES: CCCCc1cnc(NS(O)(O)CC)nc1-c1ccc(=O)n(C)c1 [US10941160, Example 358]
- IC50: < 0.5 µM
